We go through one compound from article PMC6977318, “In vitro and in situ study on characterization and mechanism of the intestinal absorption of 2,3,5,4′-tetrahydroxy-stilbene-2-O-β-D-glucoside” (BMC Pharmacology & Toxicology, 2020).

The data set relates to P-gp. Put plainly: Effect of P-gp inhibitors on intestinal absorption of TSG, in situ perfusion. Conditions: inhibitor 25 μg·mL^− 1, p < 0.05, rat.

Consider `C=C[C@H]1C[N@@]2CC[C@H]1C[C@@H]2[C@@H](O)c1ccnc2ccc(OC)cc12` [quinidine], for which the “Ka values of TSG in presence of inhibitor” value was “increased significantly” and the “PA values of TSG in presence of inhibitor” value is reported as “increased significantly”.
